Assays:
[1] = molecular target: T1, TRAF1 expressed in 293 cells (UniProt P39428 1-409); assay: glutathione-Sepharose coprecipitation from 293 cells, Western blot (control)
T1 construct: Called a homo-oligomer; also called TRAF1 homo-oligomer; TRAF1 oligomer
T1 sequence (looked up): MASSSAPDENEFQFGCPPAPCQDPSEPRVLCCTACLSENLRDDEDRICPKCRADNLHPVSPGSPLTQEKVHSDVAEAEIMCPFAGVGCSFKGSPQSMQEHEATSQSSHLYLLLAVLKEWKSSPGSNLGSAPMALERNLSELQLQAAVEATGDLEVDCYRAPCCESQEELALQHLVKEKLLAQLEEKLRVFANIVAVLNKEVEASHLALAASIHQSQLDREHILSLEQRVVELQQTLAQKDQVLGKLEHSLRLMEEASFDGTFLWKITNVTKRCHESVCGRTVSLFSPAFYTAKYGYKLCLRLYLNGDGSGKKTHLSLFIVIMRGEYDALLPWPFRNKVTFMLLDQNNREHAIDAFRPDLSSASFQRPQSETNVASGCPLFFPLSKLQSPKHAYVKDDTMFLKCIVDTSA
Experimental: (§1) Cell lysates were precipitated with glutathione-Sepharose beads, and analyzed by Western blot analysis with anti-TRAF1 or anti-TRAF2 antibodies. The 293 cells were transfected with various combinations of expression vectors and thirty-six hours after transfection, cells were harvested in phosphate-buffered saline/1 mM phenylmethylsulfonyl fluoride, pelleted, and lysed in lysis buffer (20 mM Hepes (pH 7.9), 100 mM KCl, 300 mM NaCl, 10 mM EDTA, 0.1% NP-40, plus protease inhibitors). After lysis, aliquots of cell lysates were incubated with glutathione-Sepharose (Pharmacia) for 2 hr at 4° C. […]
(§2) However, since the interaction of TRAFs with the cognate members of the TNFR superfamily is mediated through the TRAF-C domain rather than the entire TRAF domain, it was-important to determine whether TRIP can indirectly interact with the receptors through TRAFs. […] Cell lysates were precipitated with glutathione-Sepharose beads, and analyzed on Western blots with anti-HA, anti-TRAF1, and anti-TRAF2 antibodies. […]
(§3) Aliquots of cell lysates were subjected for purification with glutathione-Sepharose beads as described in Experimental Procedures. Proteins coprecipitated with GST-fusion proteins were analyzed by Western analysis with an anti-HA mAb (12CA5), and anti-TRAF1- or anti-TRAF2-polyclonal antibodies.

[2] = molecular target: T2, TRAF2 expressed in 293 cells (UniProt P39429 1-501); assay: as above
T2 construct: Called a homo-oligomer; also called TRAF2 homo-oligomer
T2 sequence (looked up): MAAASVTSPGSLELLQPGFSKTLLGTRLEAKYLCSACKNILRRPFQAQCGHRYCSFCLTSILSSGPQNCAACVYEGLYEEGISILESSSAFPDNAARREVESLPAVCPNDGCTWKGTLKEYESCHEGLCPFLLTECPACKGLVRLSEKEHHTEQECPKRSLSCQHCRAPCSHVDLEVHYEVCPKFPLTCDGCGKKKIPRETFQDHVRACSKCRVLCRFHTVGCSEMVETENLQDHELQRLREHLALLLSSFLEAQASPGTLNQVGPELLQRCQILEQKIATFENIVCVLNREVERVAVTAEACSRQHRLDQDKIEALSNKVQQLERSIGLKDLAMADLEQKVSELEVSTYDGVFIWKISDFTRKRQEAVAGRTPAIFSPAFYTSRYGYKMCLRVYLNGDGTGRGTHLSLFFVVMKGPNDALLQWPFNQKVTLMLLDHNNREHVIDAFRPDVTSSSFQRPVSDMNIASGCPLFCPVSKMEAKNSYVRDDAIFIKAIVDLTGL
Experimental: as §1, §2, §3

binding result [1]: no binding | binding result [2]: no binding
B1: GST alone (control) (other, UniProt P08515 1-218, looked up)
chain: MSPILGYWKIKGLVQPTRLLLEYLEEKYEEHLYERDEGDKWRNKKFELGLEFPNLPYYIDGDVKLTQSMAIIRYIADKHNMLGGCPKERAEISMLEGAVLDIRYGVSRIAYSKDFETLKVDFLSKLPEMLKMFEDRLCHKTYLNGDHVTHPDFMLYDALDVVLYMDPMCLDAFPKLVCFKKRIEAIPQIDKYLKSSKYIAWPLQGWQATFGGGDHPPK
notes: Control for the glutathione-Sepharose coprecipitations; also called GST proteins

— patent US6900050 (ROCKEFELLER UNIVERSITY, dated 2005)
